The source of these data is patent US9745288B2, “Compounds and methods for treating cancer by inhibiting the urokinase receptor” (Indiana University Research and Technology Corporation, priority 2011, dated 2017).

Sequences of proteins named here, by UniProt entry; tags and fusion partners are left off. Residues count along the entry.
UniProt Q03405, 23-305 limits assumed: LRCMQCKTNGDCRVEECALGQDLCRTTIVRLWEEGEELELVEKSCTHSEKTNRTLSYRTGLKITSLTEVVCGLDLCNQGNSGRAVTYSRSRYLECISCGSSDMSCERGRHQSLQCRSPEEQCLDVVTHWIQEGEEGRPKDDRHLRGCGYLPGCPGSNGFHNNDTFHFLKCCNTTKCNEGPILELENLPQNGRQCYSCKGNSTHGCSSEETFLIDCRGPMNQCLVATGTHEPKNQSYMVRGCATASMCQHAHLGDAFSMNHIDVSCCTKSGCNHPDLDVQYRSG

SMILES strings stand for the structures.

Assay [1] deals with different signaling molecules. The assay can be described thus: Western blot analysis of signaling. Particulars: n=1. (In western blotting, separated proteins are transferred to a membrane and probed.)
The subject of assay [2] is MDA-MB-231 cells. The assay can be described thus: MTT proliferation assay. Background: Formazan colour is commonly taken as a measure of viable cells.
Assay [3] concerns the target uPAR (Homo sapiens, UniProt Q03405). The experiment in a line: Fluorescence polarization assay, displacement of AE147-FAM peptide from uPAR. The note with it: Table 1; assay not stated.
Assay [4] has as its system MDA-MB-231 cells. The assay can be described thus: Migration assay (Boyden chamber without Matrigel). The assay is classed as cell-based, human. The note with it: compared to the control.
The test system of assay [5] is PANC-1 cells. The experiment in a line: MTT assay.
The test system of assay [6] is AsPC-1 (human pancreas adenocarcinoma cell line). The experiment in a line: MTT assay.
Assay [7] relates to MDA-MB-231 cells. The assay can be described thus: Adhesion assay on fibronectin-coated wells. The assay is classed as cell-based, human.

For orientation: IC50 means the concentration that inhibits the measured activity by half. A low value points to inhibition by little substance. The Ki is the equilibrium dissociation constant of an inhibitor or competing ligand from its target. A low value points to higher affinity. `Cc1ccc(-n2ncc(C(=O)Nc3ccccc3OCc3ccccc3)c2C2CCNCC2)cc1C`: the “effect on signaling molecules” value in assay [1] is given as “did not seem to be much of an effect”. In addition, the “cell proliferation / viability (MTT, words)” value in assay [2] is listed as “inhibited cell proliferation”. In addition, in assay [3], the IC50 amounted to 30 µM and the Ki was 9.12 µM. In assay [4], the “cell migration” value is reported as “capable of inhibiting cell migration”. In addition, the “cell proliferation / viability (MTT, words)” value in assay [5] is on record as “inhibited cell proliferation”. For the same compound, the “cell proliferation (MTT, words)” value in assay [6] is on record as “inhibited cell proliferation”. Besides, the “cell adhesion, comparison of compounds” value in assay [7] (50 μM) is “significantly more active in this assay than the IPR-81 and IPR-69 compounds”. The “cell adhesion” value in assay [7] (MDA-MB-231) is recorded as “capable of inhibiting breast cancer cells”.
